Test results taken from patent US20060079453A1, “Hla binding peptides and their uses” (priority 2002, published 2006).

Key:
Test in all cases: biochemical
Format in all cases: binding
HLA-DR DRB1*0701 (DR7) = HLA-DR DRB1*0701 (DR7) (Homo sapiens, UniProt P01903+P01911, A100R/A102G/A103Q/D57E/D86V/E43K/F76Y/K127E/L162R/M171V/P40G/Q125H/Q99D/R33Q/R42Y/R54Q/S133A/S66F/T210M/V115G/Y107V/Y59L/Y89S); details: DRB1 *0701
HLA-B*1801 = HLA-B*1801 (Homo sapiens, UniProt P01889, A329T/A93T/A95T/C349S/D201E/D54G/D98Y/E176V/E187T/E204Q/E69T/K202T/Q94N/R155S/R180L/S121R/V306I/Y140S/Y195H/Y33H/Y91S); details: B*1801
HLA-B*4001 = HLA-B*4001 (Homo sapiens, UniProt P01889, A65T/A93T/A95T/D138N/D98Y/E176V/E69K/N87E/Q56L/Q94N/R180L/S121R/S35A/S48T/T167S/V36M/W171L/Y33H/Y91S); details: B*4001
HLA-B*4002 = HLA-B*4002 (Homo sapiens, UniProt P01889, A65T/A93T/A95T/D138N/D201E/D98Y/E176V/E204Q/E69K/K202T/N87E/Q56L/Q94N/R180L/S48T/Y33H/Y91S); details: B*4002
HLA-B*4402 = HLA-B*4402 (Homo sapiens, UniProt P01889, A223V/A65T/A93T/A95T/D201E/D98Y/E176V/E187L/E204Q/E69K/G107R/H137Y/K202T/L105A/L119I/N104T/N87E/Q56L/Q94N/R106L/R155S/R180D/S101N/S121R/S35A/S48T/T118I/V36M/W191S/Y140D/Y91S); details: B*4402
HLA-B*4403 = HLA-B*4403 (Homo sapiens, UniProt P01889, A223V/A65T/A93T/A95T/D201E/D98Y/E176V/E187L/E204Q/E69K/G107R/H137Y/K202T/L105A/L119I/N104T/N87E/Q56L/Q94N/R106L/R155S/R180L/S101N/S121R/S35A/S48T/T118I/V36M/W191S/Y140D/Y91S); details: B*4403
HLA-B*4501 = HLA-B*4501 (Homo sapiens, UniProt P01889, A329T/A65T/A93T/A95T/C349S/D138N/D201E/D98Y/E176V/E187L/E204Q/E69K/H137Y/K202T/L119W/N87E/Q56L/Q94N/R155S/R180D/S121R/S35A/S48T/V127L/V306I/V36M/W191S/Y140L/Y33H/Y91S); details: B*4501

Row | SMILES | IC50 (HLA-DR DRB1*0701 (DR7)) [nM] | IC50 (HLA-B*1801) [nM] | IC50 (HLA-B*4001) [nM] | IC50 (HLA-B*4002) [nM] | IC50 (HLA-B*4402) [nM] | IC50 (HLA-B*4403) [nM] | IC50 (HLA-B*4501) [nM]
1 | CC(=O)N[C@@H](C)C(=O)N[C@@H](CO)C(=O)N[C@@H](CCC(N)=O)C(=O)N[C@@H](CCCCN)C(=O)N[C@@H](CCCNC(=N)N)C(=O)N1CCC[C@H]1C(=O)N[C@@H](CO)C(=O)N[C@@H](CCC(N)=O)C(=O)N[C@@H](CCCNC(=N)N)C(=O)N[C@@H](Cc1c[nH]cn1)C(=O)NCC(=O)N[C@@H](CO)C(=O)N[C@@H](CCCCN)C(=O)N[C@@H](Cc1ccc(O)cc1)C(=O)N[C@@H](CC(C)C)C(=O)N[C@@H](C)C(=O)N[C@H](C(=O)N[C@@H](C)C(=O)N[C@@H](CO)C(=O)N[C@H](C(=O)O)[C@@H](C)O)[C@@H](C)O | 2360 | – | – | – | – | – | –
2 | CC[C@H](C)[C@H](NC(=O)[C@H](CCC(=O)O)NC(=O)[C@@H]1CCCN1C(=O)[C@H](CCC(=O)O)NC(=O)[C@@H](N)CS)C(=O)N[C@@H](CCC(N)=O)C(=O)N[C@@H](CC(N)=O)C(=O)N[C@H](C(=O)N[C@H](C(=O)N[C@@H](Cc1ccc(O)cc1)C(=O)N[C@@H](CC(C)C)C(=O)N[C@@H](Cc1c[nH]c2ccccc12)C(=O)N[C@@H](Cc1c[nH]c2ccccc12)C(=O)O)[C@@H](C)O)[C@@H](C)O | – | 84 | 858 | 3170 | 7.9 | 409 | 1240
3 | CC(C)C[C@H](NC(=O)[C@@H](NC(=O)[C@H](CO)NC(=O)[C@H](CO)NC(=O)[C@H](CO)NC(=O)[C@H](CO)NC(=O)[C@H](C)NC(=O)[C@@H](NC(=O)[C@H](CCC(N)=O)NC(=O)[C@H](CCC(N)=O)NC(=O)[C@H](CCC(=O)O)NC(=O)[C@@H](N)CCC(=O)O)[C@@H](C)O)[C@@H](C)O)C(=O)O | – | 7260 | 166 | – | – | 981 | 15
4 | CC(C)C[C@H](NC(=O)[C@H](C)NC(=O)[C@H](Cc1ccc(O)cc1)NC(=O)[C@H](CC(N)=O)NC(=O)[C@H](CC(=O)O)NC(=O)[C@H](CCC(=O)O)NC(=O)[C@@H](N)Cc1ccccc1)C(=O)N[C@@H](C)C(=O)N[C@H](C(=O)O)C(C)C | – | 12 | 34 | 5.1 | 13500 | 0.17 | 131
5 | CC[C@H](C)[C@H](NC(=O)[C@H](Cc1ccc(O)cc1)NC(=O)[C@H](CC(C)C)NC(=O)[C@H](Cc1ccc(O)cc1)NC(=O)CNC(=O)[C@@H](NC(=O)[C@@H](NC(=O)[C@H](CCC(=O)O)NC(=O)[C@H](CCC(=O)O)NC(=O)[C@@H](N)CC(C)C)[C@@H](C)CC)[C@@H](C)O)C(=O)N[C@@H](CO)C(=O)N[C@@H](C)C(=O)O | – | 209 | 28 | 31 | – | 18 | 694
6 | CC(C)C[C@H](NC(=O)[C@H](CO)NC(=O)[C@H](C)NC(=O)[C@H](CC(N)=O)NC(=O)[C@@H](NC(=O)[C@@H]1CCCN1C(=O)[C@H](CC(C)C)NC(=O)[C@H](Cc1ccc(O)cc1)NC(=O)[C@@H](NC(=O)[C@H](CC(C)C)NC(=O)[C@H](CCC(=O)O)NC(=O)[C@@H](N)CC(C)C)[C@@H](C)O)[C@@H](C)O)C(=O)O | – | 12 | 25 | 102 | 386 | 6.8 | 11
7 | CC[C@H](C)[C@H](NC(=O)[C@@H](N)CC(C)C)C(=O)N[C@@H](CCSC)C(=O)N[C@@H](Cc1ccc(O)cc1)C(=O)N[C@@H](CO)C(=O)N[C@@H](C)C(=O)N[C@@H](Cc1c[nH]cn1)C(=O)N[C@@H](CC(=O)O)C(=O)N[C@H](C(=O)N[C@H](C(=O)N[C@H](C(=O)N[C@@H](CO)C(=O)NCC(=O)N[C@@H](CC(C)C)C(=O)N[C@@H](CCC(N)=O)C(=O)O)C(C)C)[C@@H](C)O)[C@@H](C)O | 731 | – | – | – | – | – | –
8 | CSCC[C@H](N)C(=O)N[C@@H](CCC(=O)O)C(=O)N[C@@H](Cc1c[nH]cn1)C(=O)N[C@@H](CC(C)C)C(=O)N[C@@H](CCCNC(=N)N)C(=O)N[C@@H](CCC(=O)O)C(=O)N[C@H](C(=O)N[C@@H](CCCNC(=N)N)C(=O)N[C@@H](C)C(=O)N[C@H](C(=O)N[C@H](C(=O)N[C@@H](CO)C(=O)N[C@@H](C)C(=O)O)[C@@H](C)O)C(C)C)C(C)C | – | 70 | 669 | – | 144 | 18 | 12
9 | CC[C@H](C)[C@H](NC(=O)[C@H](CC(C)C)NC(=O)[C@@H](NC(=O)[C@H](Cc1ccc(O)cc1)NC(=O)CNC(=O)[C@H](CCC(N)=O)NC(=O)[C@@H](NC(=O)[C@H](CCC(=O)O)NC(=O)[C@@H](N)CCC(N)=O)C(C)C)C(C)C)C(=O)O | – | 77 | – | 39 | 30 | 0.5 | 96
10 | CC[C@H](C)[C@H](NC(=O)[C@H](CCC(=O)O)NC(=O)[C@@H](N)CCCNC(=N)N)C(=O)N1CCC[C@H]1C(=O)N[C@@H](CC(=O)O)C(=O)N[C@@H](CC(C)C)C(=O)N[C@@H](CC(C)C)C(=O)N[C@@H](CCC(=O)O)C(=O)N[C@@H](CCCCN)C(=O)NCC(=O)N[C@@H](CCC(=O)O)C(=O)N[C@@H](CCCNC(=N)N)C(=O)N[C@@H](CC(C)C)C(=O)O | – | 7640 | 40 | – | 3050 | 16 | 2710
11 | CC[C@H](C)[C@H](NC(=O)[C@H](CCC(=O)O)NC(=O)[C@H](CCCCN)NC(=O)[C@H](CC(N)=O)NC(=O)[C@H](C)NC(=O)[C@H](CCCCN)NC(=O)[C@@H]1CCCN1C(=O)[C@H](CO)NC(=O)[C@@H](NC(=O)[C@H](CC(N)=O)NC(=O)[C@H](CCC(=O)O)NC(=O)[C@@H](N)CCCNC(=N)N)[C@@H](C)O)C(=O)N[C@@H](CC(C)C)C(=O)O | – | 7750 | 3.7 | 77 | > 2540 | 3.9 | 1510
12 | CSCC[C@H](NC(=O)[C@H](CCC(=O)O)NC(=O)[C@H](C)NC(=O)[C@H](CCCCN)NC(=O)[C@@H](NC(=O)[C@@H](NC(=O)[C@@H]1CCCN1C(=O)[C@H](CCC(=O)O)NC(=O)[C@@H](N)CCCNC(=N)N)C(C)C)[C@@H](C)O)C(=O)N[C@@H](CC(C)C)C(=O)N[C@@H](CCC(=O)O)C(=O)N[C@@H](CO)C(=O)N[C@H](C(=O)O)C(C)C | – | 5530 | – | 411 | – | 21 | 1510
13 | CC(C)C[C@H](NC(=O)[C@H](CC(=O)O)NC(=O)CNC(=O)[C@H](CC(=O)O)NC(=O)[C@H](Cc1ccccc1)NC(=O)[C@@H](NC(=O)[C@H](CC(=O)O)NC(=O)[C@H](CO)NC(=O)CNC(=O)[C@H](C)NC(=O)CNC(=O)[C@H](CCC(=O)O)NC(=O)[C@@H](N)CO)C(C)C)C(=O)O | – | 5170 | 45 | – | 1300 | 711 | 2460
14 | CC[C@H](C)[C@H](NC(=O)CNC(=O)[C@H](Cc1ccccc1)NC(=O)[C@@H](NC(=O)[C@H](CC(C)C)NC(=O)[C@H](CCC(N)=O)NC(=O)[C@H](CC(C)C)NC(=O)[C@H](Cc1ccc(O)cc1)NC(=O)[C@H](CCC(=O)O)NC(=O)[C@@H](N)CO)C(C)C)C(=O)N[C@@H](CCC(=O)O)C(=O)N[C@H](C(=O)N[C@H](C(=O)O)C(C)C)C(C)C | – | 9.7 | 23 | 4.5 | 144 | 5.4 | 6.6
15 | CC[C@H](C)[C@H](NC(=O)[C@@H]1CCCN1C(=O)[C@@H](NC(=O)[C@@H](NC(=O)[C@H](CCC(=O)O)NC(=O)[C@@H](N)C(C)C)C(C)C)C(C)C)C(=O)N[C@@H](CO)C(=O)N[C@@H](Cc1c[nH]cn1)C(=O)N[C@@H](CC(C)C)C(=O)N[C@@H](Cc1ccc(O)cc1)C(=O)O | – | 20 | – | – | – | 1230 | 4880
16 | CC[C@H](C)[C@H](NC(=O)[C@H](Cc1ccc(O)cc1)NC(=O)[C@H](CC(C)C)NC(=O)[C@H](Cc1c[nH]cn1)NC(=O)[C@H](CO)NC(=O)[C@@H](NC(=O)[C@@H]1CCCN1C(=O)[C@@H](NC(=O)[C@@H](NC(=O)[C@H](CCC(=O)O)NC(=O)[C@@H](N)C(C)C)C(C)C)C(C)C)[C@@H](C)CC)C(=O)N[C@@H](CC(C)C)C(=O)N[C@H](C(=O)O)C(C)C | – | 92 | 93 | 47 | 270 | 51 | –
